Only a part is listed here, and it is no random draw. Calls of active or inactive are those of the source.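 Rule for the calls: active = compounds whose thallium flux B-score, printed positive for inhibition, exceeds three library SD while starting fluorescence stays within three; inactive = the rest.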
The compounds below were run against Potassium voltage-gated channel subfamily KQT member 1 (Homo sapiens) (UniProt P51787) (assay: inhibitors of human KCNQ1 channel, primary screen, cell-based, thallium flux, high-throughput (AID 2642;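 note: channel opened by potassium depolarization with thallium stimulus after 20 min compound exposure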)). Conditions: CHO-K1 KCNQ1, FluxOR thallium flux fluorescence; at 10 µM; hits give high values.
In the case of `CN(C)C(=O)c1cc([N+](=O)[O-])cc2c1-c1c(cc([N+](=O)[O-])cc1[N+](=O)[O-])C2=O`, the B-score is reported as active: 10. For `Nc1cccc2c([As](=O)(O)O)cccc12`, the B-score was active: 6. `COc1cc(C(=O)NCC2(N3CCOCC3)CCCCC2)cc(Cl)c1OC(C)C` was tested, and the B-score was active: 7. `CCC1=CC2Cc3nc4ccc(Cl)cc4c(N)c3C(C1)C2` (stereo unspecified) was tested, and the B-score was active: 7. `O=[N+]([O-])c1ccc(O)c(/C=N/Nc2ccc([N+](=O)[O-])cc2[N+](=O)[O-])c1` was tested, and the B-score was active: 15. For `O=[N+]([O-])c1cc([N+](=O)[O-])c(CCN2CCOCC2)c([N+](=O)[O-])c1`, the B-score was active: 6.
